In patent US20200340991A1 one finds luciferase induction by bTSH relative to the wt TSHR cell line data, which are given here for one substance.

The target in this assay is chimeric TSH receptor (chimeric MC4 receptor) expressed on CHO-MC4 cells (human/rat chimera) (UniProt P16473). Kind of assay: cell-based or functional assay.

In turn, “bovine thyroid stimulating hormone (from UniProt P01217 25-120; P01223 21-132) (ligand)” had a luciferase induction by bTSH relative to the wt TSHR cell line of 8 fold.
